Results published in US20050065064A1, “Identification of allosteric peptide agonists of CXCR4” (priority 2002, published 2005).

Chains of the proteins cited; added tags and fusions are not shown.
UniProt P61073, whole entry: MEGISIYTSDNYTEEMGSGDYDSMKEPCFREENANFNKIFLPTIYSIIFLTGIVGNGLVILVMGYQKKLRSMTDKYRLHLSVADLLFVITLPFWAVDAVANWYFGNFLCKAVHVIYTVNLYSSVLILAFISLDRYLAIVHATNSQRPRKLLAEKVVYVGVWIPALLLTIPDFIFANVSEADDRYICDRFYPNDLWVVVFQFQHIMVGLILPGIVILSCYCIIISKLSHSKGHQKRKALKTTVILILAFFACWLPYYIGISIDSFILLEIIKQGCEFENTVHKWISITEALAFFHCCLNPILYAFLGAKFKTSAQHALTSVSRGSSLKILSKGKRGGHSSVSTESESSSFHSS

Assays:
CXCR4 [1] = target: T1, CXCR4 (Homo sapiens, UniProt P61073); assay: β-galactosidase assay in yeast expressing CXCR4 (FUS1-lacZ reporter); type: cell-based; set-up: The plasmid Cp4181 contains the CXCR4 gene under the control of the constitutive phosphoglycerate kinase (PGK1) promoter; expressed in transfected cells; host or cells: Saccharomyces cerevisiae CY12946 derivatives YAS2 / YAS3 (plasmid Cp4181)
Excerpt: The initial S. cerevisiae strain was CY12946 (MATα FUS1p-HIS3 GPA1Gαi2(5) canI farIΔI442 his3 leu2 sst2Δ2 ste14::trp1::LYS2 ste3Δ1156 tbt1-1 trp1 ura3) (23). Except for the specific chimeric Ga subunit expressed, CY12946 is genetically similar to CY1141, reported in Klein et al. (18), with two differences. First, the two strains express different Gα subunits. Specifically, CY12946 expresses a chimeric Gα subunit (GPA1Gαi2(5)) in which the C-terminal 5 amino acids of the yeast Ga subunit, GPA1, are replaced by the C-terminal 5 residues of Gαi2. In contrast, as described by Klein et al. (18), CY1141 expresses a chimeric Ga subunit (GPA1(41)Gαi2) in which the N-terminal 33 residues of Gαi2 are replaced by the 41 N-terminal residues of GPA1. We have used CY12946 in the current report because GPA1Gαi2(5) is more efficient than GPA1(41)Gαi2 in coupling CXCR4 to the pheromone response pathway. The use of GPA1Gαi2(5) necessitated deletion of SST2, which down-regulates the pheromone response pathway by accelerating the GTPase activity of GPA1. Thus, the second difference between CY12946 and CY1141 is the presence of an sst2 deletion allele in CY12946. All plasmids were 2μ-derived and contained a REP3 element for autonomous replication in S. cerevisiae and AmPR for selection in Escherichia coli. […]

CXCR4 [2] = target: T1, CXCR4; assay: Flow cytometry of CXCR4 surface levels (12G5 indirect staining); type: cell-based; settings: FIG. 8D, 8E
Procedure: Flow cytometric analysis of cell subpopulations was performed using a FACS Vantage flow cytometer (Becton-Dickinson Immunocytometry Systems, San Jose, Calif.) for detection of CXCR4 surface expression with the 12G5 monoclonal antibody. An indirect staining protocol was used. Briefly, after a 90 min incubation with various agents, the cells were washed and resuspended in PBS. Nonspecific (Fc-mediated) binding was blocked using purified rat IgG. The primary antibody (12G5, a mouse IgG2a antibody) was added at 1 μg/ml for 45 min. After centrifugation the cells were resuspended in PBS and the secondary antibody (FITC-linked rat anti-mouse IgG2a) was added at 10 μg/ml for 45 min. The cells were fixed with 2% formaldehyde (in PBS) and used within 2 days for data acquisition. Mouse IgG2a was used as an isotype control. For the fluorescence measurements the cells were excited at 488 nm. The FITC fluorescence was collected through a 530/30 nm band pass filter. A minimum of 15,000 cells were examined for each sample. Analysis of data was performed using the CellQuest software (Becton-Dickinson).

CCRF-CEM cells = assay: Chemotaxis assay (transwell) on CCRF-CEM cells; type: cell-based, human
Procedure: The CCRF-CEM acute lymphoblastic leukemia cell line was previously shown to express CXCR4 and to migrate in response to SDF-1α (31). The procedure involved cells that were ˜70-80% confluent and were centrifuged at 1000 rpm for 5 min and resuspended at a concentration of ˜10^7 cells/ml. The transwell system (Corning-Costar^R) was used for quantifying the chemotactic response. Six hundred μl of solution with different concentrations of a CXCR4 agonist were added to the bottom of the wells of 24-well culture plates. One hundred μl of the cell suspension was aliquoted in the transwell cups and inserted in the wells. The bottom of the cups is layered with a membrane that has a 5 μm pore size and allows cell movement towards the higher concentration of chemoattractant. The cells were incubated for 2h at 37° C., after which the migrated cells were collected and counted with an electronic particle counter (Coulter^R). In cases where the effect of neutralization by CXCR4 monoclonal antibodies or antagonists was examined, the inhibitor was added to the upper compartment along with the cells.

CSCC[C@H](NC(=O)[C@@H](NC(=O)[C@H](CO)NC(=O)[C@@H](N)CCCNC(=N)N)C(C)C)C(=O)N[C@@H](CC(C)C)C(=O)N[C@@H](CO)C(=O)N[C@@H](Cc1ccc(O)cc1)C(=O)N[C@@H](CCCNC(=N)N)C(=O)N[C@@H](CS)C(=O)N1CCC[C@H]1C(=O)N[C@@H](CS)C(=O)N[C@@H](CCCNC(=N)N)C(=O)N[C@@H](Cc1ccccc1)C(=O)N[C@@H](Cc1ccccc1)C(=O)N[C@@H](CCC(=O)O)C(=O)N[C@@H](CO)C(=O)N[C@@H](Cc1c[nH]cn1)C(=O)O [RSVM]
resistance of β-galactosidase activity to AMD3100 (CXCR4 [1]; peptide-expressing yeast clones): resistance to AMD3100
β-galactosidase activity on endogenous expression of the peptide (CXCR4 [1]; yeast strains with or without CXCR4 (FIG. 3)): significant increase of β-galactosidase activity only in the strain that co-expresses CXCR4
concentration dependence of the effect on CXCR4 surface levels (CXCR4 [2]): concentration-dependent
agonist character in chemotaxis (chemotactic index relative to SDF-Fc) (CCRF-CEM cells; CCRF-CEM cells): weak partial agonist
EC50 (CCRF-CEM cells; CCRF-CEM cells (FIG. 4A, 4B), read-out: apparent EC50, chemotaxis): > 100 µM
lowering of chemotactic index on co-stimulation with SDF-Fc versus SDF-Fc alone (CCRF-CEM cells; CCRF-CEM cells (FIG. 4C)): about 30%
chemotaxis in the presence of the two peptide agonists ASLW and RSVM (CCRF-CEM cells; CCRF-CEM cells (FIG. 4E)): additive
effect of antibody 12G5 on chemotactic activity of the agonist (CCRF-CEM cells; CCRF-CEM cells (FIG. 6A, 6B, 7D)): very small effect
effect of AMD3100 on chemotactic activity of the agonist (CCRF-CEM cells; CCRF-CEM cells, AMD3100 up to 100 μg/ml (~115 μM)): Strong resistance to inhibition
effect of T140 on chemotactic activity of the agonist (CCRF-CEM cells; CCRF-CEM cells, T140 up to concentrations comparable to the agonists): does not inhibit
effect of antibody 44717.111 on chemotactic activity of the agonist (CCRF-CEM cells; CCRF-CEM cells, up to 50 μg/ml for the peptides, ten-fold lower for SDF-Fc): neither RSVM- nor ASLW-mediated chemotactic activity is significantly affected
